Laboratory results as given in ChEMBL document CHEMBL1125782, “Structure/activity studies related to 2-(3,4-dichlorophenyl)-N-methyl-N-[2-(1-pyrrolidinyl)-1-substituted- ethyl]acetamides: a novel series of potent and selective kappa-opioid agonists” (1991).

The chains behind the UniProt entries cited, without tags or fusion partners. Where a name states a change or a piece, a line headed by the entry shows the natural chain unless it says otherwise.
UniProt P41144: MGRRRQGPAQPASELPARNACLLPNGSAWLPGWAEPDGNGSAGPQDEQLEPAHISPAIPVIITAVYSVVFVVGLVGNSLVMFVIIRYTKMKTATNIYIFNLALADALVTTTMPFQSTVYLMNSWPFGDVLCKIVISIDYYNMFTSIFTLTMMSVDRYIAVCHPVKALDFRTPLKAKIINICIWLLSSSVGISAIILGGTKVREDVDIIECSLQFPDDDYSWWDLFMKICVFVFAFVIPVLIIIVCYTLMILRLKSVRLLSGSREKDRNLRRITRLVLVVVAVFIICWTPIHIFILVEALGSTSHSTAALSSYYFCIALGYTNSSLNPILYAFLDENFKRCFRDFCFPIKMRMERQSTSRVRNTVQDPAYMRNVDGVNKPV

These compounds were tested on Mus musculus (assay: Sedative activity after sc administration in female mice (Alderley Park strain)). Settings: not given.
COc1ccc(C(CN2CCCC2)N(C)C(=O)Cc2ccc(Cl)c(Cl)c2)cc1OC (stereo not given) showed an ED50 of 0.13 mg/kg. For CC(C)C[C@@H](CN1CCCC1)N(C)C(=O)Cc1ccc(Cl)c(Cl)c1, the ED50 was 0.37 mg/kg. Compound CC(C)[C@@H](CN1CCCC1)N(C)C(=O)Cc1ccc(C#N)cc1 has an ED50 of 9.31 mg/kg. For CC(=O)Nc1cccc(C(CN2CCCC2)N(C)C(=O)Cc2ccc(Cl)c(Cl)c2)c1 (stereo not given), the ED50 was 0.19 mg/kg. COc1ccccc1C(CN1CCCC1)N(C)C(=O)Cc1ccc(Cl)c(Cl)c1 (stereo not given) showed an ED50 of 0.22 mg/kg. For CN(C(=O)Cc1ccc(Cl)c(Cl)c1)C(CN1CCCC1)c1cccc(O)c1 (stereo not given), the ED50 was 0.53 mg/kg. Compound CC(C)[C@@H](CN1CCCC1)N(C)C(=O)Cc1ccc(F)c(F)c1 has an ED50 of 1.18 mg/kg. CCCN(C)C[C@H](C(C)C)N(C)C(=O)Cc1ccc(Cl)c(Cl)c1 gave an ED50 of 2.42 mg/kg. In the case of CC(C)[C@@H](CN(C)C)N(C)C(=O)Cc1ccc(Cl)c(Cl)c1, the ED50 is reported as 1.15 mg/kg. For COc1cccc(C(CN2CCCC2)N(C)C(=O)Cc2ccc(Cl)c(Cl)c2)c1 (stereo not given), the ED50 was 0.39 mg/kg. In the case of CC(C)[C@H](CN1CCCC1)N(C)C(=O)Cc1ccc(Cl)c(Cl)c1, the ED50 is reported as 33.1 mg/kg. CSc1ccc(C(CN2CCCC2)N(C)C(=O)Cc2ccc(Cl)c(Cl)c2)cc1 (stereo not given) showed an ED50 of 3.3 mg/kg. CC(C)[C@@H](CN(C)C(C)C)N(C)C(=O)Cc1ccc(Cl)c(Cl)c1 showed an ED50 of 0.18 mg/kg. CC(C)[C@@H](CN1CCCC1)N(C)C(=O)Cc1ccc([N+](=O)[O-])cc1 was tested, and the ED50 was 0.87 mg/kg. For CN(C(=O)Cc1ccc(Cl)c(Cl)c1)C(CN1CCCC1)c1cccc(N)c1 (stereo not given), the ED50 was 0.17 mg/kg. In the case of CCN(CC)C[C@H](C(C)C)N(C)C(=O)Cc1ccc(Cl)c(Cl)c1, the ED50 is reported as 1.18 mg/kg. Compound CC(C)[C@@H](CN1CCCC1)N(C)C(=O)CSc1ccccc1 has an ED50 of 9.71 mg/kg. Work on CC(C)[C@@H](CN1CCCCC1)N(C)C(=O)Cc1ccc(Cl)c(Cl)c1 yielded an ED50 of 0.46 mg/kg. With C=CCN(C)C[C@H](c1ccccc1)N(C)C(=O)Cc1ccc(Cl)c(Cl)c1 the ED50 was 0.71 mg/kg. In the case of COc1ccc(CC(=O)N(C)[C@H](CN2CCCC2)C(C)C)cc1, the ED50 is reported as 10.6 mg/kg. COc1ccc(C(CN2CCCC2)N(C)C(=O)Cc2ccc(Cl)c(Cl)c2)c(OC)c1 (stereo not given) was tested, and the ED50 was 1.5 mg/kg. In the case of CN(C(=O)Cc1ccc(Cl)c(Cl)c1)C(CN1CCCC1)C(C)(C)C (stereo not given), the ED50 is reported as 0.13 mg/kg. Compound CC[C@]12CCN(CC3CC3)[C@H](C(=O)c3ccc(O)cc31)[C@@H]2C has an ED50 of 0.46 mg/kg. For CCC[C@@H](CN1CCCC1)N(C)C(=O)Cc1ccc(Cl)c(Cl)c1, the ED50 was 0.8 mg/kg. Work on CN(C(=O)Cc1ccc(Cl)c(Cl)c1)C(CN1CCCC1)c1ccc(O)cc1 (stereo not given) yielded an ED50 of 0.33 mg/kg. With CN(C(=O)Cc1ccc(Cl)c(Cl)c1)C(CN1CCCC1)c1ccccc1 (stereo not given) the ED50 was 0.15 mg/kg. With CC(C)[C@@H](CN1CCCC1)NC(=O)Cc1ccccc1 the ED50 was 29.7 mg/kg. CC(C)[C@@H](CN1CCCC1)N(C)C(=O)COc1ccccc1 was tested, and the ED50 was 0.73 mg/kg. For CN(C(=O)Cc1ccc(Cl)c(Cl)c1)C1CCCCC1N1CCCC1 (stereo not given), the ED50 was 7.37 mg/kg. CN(C(=O)Cc1ccc(Cl)c(Cl)c1)C(CN1CCCC1)c1cccc(Cl)c1 (stereo not given) showed an ED50 of 0.68 mg/kg. With C[C@@H](CN1CCCC1)N(C)C(=O)Cc1ccc(Cl)c(Cl)c1 the ED50 was 1.98 mg/kg. In the case of CCC(C)[C@@H](CN1CCCC1)N(C)C(=O)Cc1ccc(Cl)c(Cl)c1 (stereo not given in full), the ED50 is reported as 0.16 mg/kg. Compound CN(C(=O)Cc1ccc(Cl)c(Cl)c1)[C@H](CN1CCCC1)c1ccccc1 has an ED50 of 0.05 mg/kg. With CC(C)[C@@H](CN1CCCC1)N(C)C(=O)Cc1ccccc1 the ED50 was 12.6 mg/kg. In the case of COc1ccc(C(CN2CCCC2)N(C)C(=O)Cc2ccc(Cl)c(Cl)c2)cc1 (stereo not given), the ED50 is reported as 0.55 mg/kg. For CC[C@@H](CN1CCCC1)N(C)C(=O)Cc1ccc(Cl)c(Cl)c1, the ED50 was 2.76 mg/kg. For CC(C)[C@@H](CN1CCCC1)N(C)C(=O)Cc1cccc(Cl)c1, the ED50 was 0.77 mg/kg. In the case of CNc1cccc(C(CN2CCCC2)N(C)C(=O)Cc2ccc(Cl)c(Cl)c2)c1 (stereo not given), the ED50 is reported as 0.63 mg/kg. For CC(C)[C@@H](CN1CCCC1)N(C)C(=O)Cc1ccc(Cl)cc1, the ED50 was 1.4 mg/kg. In the case of CC(C)[C@@H](CN1CCCC1)N(C)C(=O)Cc1ccc(Cl)c(Cl)c1 [listing 1 of 2 here], the ED50 is reported as 0.78 mg/kg. In the case of CCN(C(=O)Cc1ccccc1)[C@H](CN1CCCC1)C(C)C, the ED50 is reported as 8.72 mg/kg. Compound CN(C(=O)Cc1ccc(Cl)c(Cl)c1)[C@H](CN1CC=CC1)c1ccccc1 has an ED50 of 0.04 mg/kg. Work on CC(C)[C@@H](CN1CCCC1)N(C)C(=O)Cc1ccc(C(F)(F)F)cc1 yielded an ED50 of 0.56 mg/kg.

What follows are compounds tested on Mus musculus (assay: Antinociceptive activity in acetic acid induced abdominal constriction assay after sc administration and abolished by naloxone administered at 3 mg/kg sc in mice). Settings: route subcutaneous, Abdomen.
Work on CN(C(=O)Cc1ccc(Cl)c(Cl)c1)C(CN1CCCC1)c1cccc(N)c1 (stereo not given) yielded an ED50 of 0.041 mg/kg. Work on CC[C@]12CCN(CC3CC3)[C@H](C(=O)c3ccc(O)cc31)[C@@H]2C yielded an ED50 of 0.17 mg/kg. Work on CN(C(=O)Cc1ccc(Cl)c(Cl)c1)[C@@H](CN1CCCC1)c1ccccc1 yielded an ED50 greater than 10 mg/kg. Compound CN(C(=O)Cc1ccc(Cl)c(Cl)c1)C(CN1CCCC1)c1ccccc1 (stereo not given) has an ED50 of 0.007 mg/kg. With CN(C(=O)Cc1ccc(Cl)c(Cl)c1)C1CCCCC1N1CCCC1 (stereo not given) the ED50 was 1.1 mg/kg. CN(C(=O)Cc1ccc(Cl)c(Cl)c1)[C@H](CN1CCCC1)c1ccccc1 showed an ED50 of 0.004 mg/kg.

The compounds below were run against T1, Kappa-type opioid receptor (Cavia porcellus, UniProt P41144) (assay: Binding affinity against Opioid receptor kappa 1, in guinea pig brain membrane, using [3H]bremazocine as the radioligand.). Settings: not given.
For CC(C)[C@@H](CN1CCCC1)N(C)C(=O)Cc1ccc(Cl)cc1, the IC50 was 37.2 nM.

The compounds below were run against T1, Kappa-type opioid receptor (assay: Binding affinity against opioid receptor kappa in guinea pig brain membrane using [3H]bremazocine as the radioligand). Settings: not given.
COc1ccc(C(CN2CCCC2)N(C)C(=O)Cc2ccc(Cl)c(Cl)c2)cc1OC (stereo not given) gave an IC50 of 32.8 nM. Compound CC(C)[C@@H](CN1CCCC1)N(C)C(=O)Cc1ccc(C#N)cc1 has an IC50 of 277 nM. With CC(=O)Nc1cccc(C(CN2CCCC2)N(C)C(=O)Cc2ccc(Cl)c(Cl)c2)c1 (stereo not given) the IC50 was 5.5 nM. COc1ccccc1C(CN1CCCC1)N(C)C(=O)Cc1ccc(Cl)c(Cl)c1 (stereo not given) was tested, and the IC50 was 16.8 nM. CN(C(=O)Cc1ccc(Cl)c(Cl)c1)C(CN1CCCC1)c1cccc(O)c1 (stereo not given) was tested, and the IC50 was 11.5 nM. CC(C)[C@@H](CN1CCCC1)N(C)C(=O)Cc1ccc(F)c(F)c1 was tested, and the IC50 was 101 nM. CCCN(C)C[C@H](C(C)C)N(C)C(=O)Cc1ccc(Cl)c(Cl)c1 was tested, and the IC50 was 71 nM. CC(C)[C@@H](CN(C)C)N(C)C(=O)Cc1ccc(Cl)c(Cl)c1 showed an IC50 of 105 nM. Compound COc1cccc(C(CN2CCCC2)N(C)C(=O)Cc2ccc(Cl)c(Cl)c2)c1 (stereo not given) has an IC50 of 31.2 nM. For CSc1ccc(C(CN2CCCC2)N(C)C(=O)Cc2ccc(Cl)c(Cl)c2)cc1 (stereo not given), the IC50 was 124 nM. Work on CC(C)[C@@H](CN(C)Cc1ccccc1)N(C)C(=O)Cc1ccc(Cl)c(Cl)c1 yielded an IC50 of 1610 nM. For CC(C)[C@@H](CN(C)C(C)C)N(C)C(=O)Cc1ccc(Cl)c(Cl)c1, the IC50 was 14.6 nM. In the case of CC(C)[C@@H](CN1CCCC1)N(C)C(=O)Cc1ccc([N+](=O)[O-])cc1, the IC50 is reported as 92 nM. With CN(C(=O)Cc1ccc(Cl)c(Cl)c1)C(CN1CCCC1)c1cccc(N)c1 (stereo not given) the IC50 was 14.3 nM. Work on CCN(CC)C[C@H](C(C)C)N(C)C(=O)Cc1ccc(Cl)c(Cl)c1 yielded an IC50 of 81 nM. With CC(C)[C@@H](CN1CCCC1)N(C)C(=O)CSc1ccccc1 the IC50 was 206 nM. Compound CN(C(=O)Cc1ccc(Cl)c(Cl)c1)C(CN1CCCC1)c1cccc(C#N)c1 (stereo not given) has an IC50 of 25 nM. C=CCN(C)C[C@H](c1ccccc1)N(C)C(=O)Cc1ccc(Cl)c(Cl)c1 showed an IC50 of 8.2 nM. COc1ccc(CC(=O)N(C)[C@H](CN2CCCC2)C(C)C)cc1 was tested, and the IC50 was 909 nM. In the case of CNC[C@H](C(C)C)N(C)C(=O)Cc1ccc(Cl)c(Cl)c1, the IC50 is reported as 625 nM. CN(C(=O)Cc1ccc(Cl)c(Cl)c1)C(CN1CCCC1)c1ccccc1O (stereo not given) gave an IC50 of 21.7 nM. Compound COc1ccc(C(CN2CCCC2)N(C)C(=O)Cc2ccc(Cl)c(Cl)c2)c(OC)c1 (stereo not given) has an IC50 of 248 nM. Compound CCCN(C(=O)Cc1ccccc1)[C@H](CN1CCCC1)C(C)C has an IC50 of 1440 nM. With CN(C(=O)Cc1ccc(Cl)c(Cl)c1)C(CN1CCCC1)c1ccc(O)cc1 (stereo not given) the IC50 was 9.8 nM. CC(C)[C@@H](CN1CCCC1)NC(=O)Cc1ccccc1 gave an IC50 of 485 nM. CC(C)[C@@H](CN1CCCC1)N(C)C(=O)COc1ccccc1 was tested, and the IC50 was 20.9 nM. CC(C)[C@@H](CN1CCCC1)N(C)C(=O)Cc1ccccc1 was tested, and the IC50 was 656 nM. COc1ccc(C(CN2CCCC2)N(C)C(=O)Cc2ccc(Cl)c(Cl)c2)cc1 (stereo not given) showed an IC50 of 73.2 nM. CC(C)[C@@H](CN1CCCC1)N(C)C(=O)CCc1ccccc1 was tested, and the IC50 was 420 nM. For CNc1cccc(C(CN2CCCC2)N(C)C(=O)Cc2ccc(Cl)c(Cl)c2)c1 (stereo not given), the IC50 was 39.1 nM. CCN(C(=O)Cc1ccccc1)[C@H](CN1CCCC1)C(C)C was tested, and the IC50 was 322 nM. In the case of CN(C(=O)Cc1ccc(Cl)c(Cl)c1)[C@H](CN1CC=CC1)c1ccccc1, the IC50 is reported as 10.8 nM. For CC(C)[C@@H](CN1CCCC1)N(C)C(=O)Cc1ccc(C(F)(F)F)cc1, the IC50 was 14.3 nM.

What follows are compounds tested against T1, Kappa-type opioid receptor (assay: Binding affinity against opioid receptor kappa, in guinea pig brain membrane, using [3H]bremazocine as the radioligand.). Settings: not given.
CC(C)C[C@@H](CN1CCCC1)N(C)C(=O)Cc1ccc(Cl)c(Cl)c1 gave an IC50 of 14 nM. Work on CC(C)[C@H](CN1CCCC1)N(C)C(=O)Cc1ccc(Cl)c(Cl)c1 yielded an IC50 of 1020 nM. CC(C)[C@@H](CN1CCCCC1)N(C)C(=O)Cc1ccc(Cl)c(Cl)c1 showed an IC50 of 10.8 nM. CN(C(=O)Cc1ccc(Cl)c(Cl)c1)C(CN1CCCC1)C(C)(C)C (stereo not given) was tested, and the IC50 was 24.5 nM. CN(C(=O)Cc1ccc(Cl)c(Cl)c1)[C@@H](CN1CCCC1)c1ccccc1 was tested, and the IC50 was 2750 nM. For CCC[C@@H](CN1CCCC1)N(C)C(=O)Cc1ccc(Cl)c(Cl)c1, the IC50 was 38.7 nM. CN(C(=O)Cc1ccc(Cl)c(Cl)c1)C(CN1CCCC1)c1ccccc1 (stereo not given) showed an IC50 of 12.2 nM. Compound CN(C(=O)Cc1ccc(Cl)c(Cl)c1)C(CN1CCCC1)c1cccc(Cl)c1 (stereo not given) has an IC50 of 57.8 nM. CCC(C)[C@@H](CN1CCCC1)N(C)C(=O)Cc1ccc(Cl)c(Cl)c1 (stereo not given in full) showed an IC50 of 10.1 nM. CC[C@@H](CN1CCCC1)N(C)C(=O)Cc1ccc(Cl)c(Cl)c1 gave an IC50 of 65.4 nM. CC(C)[C@@H](CN1CCCC1)N(C)C(=O)Cc1cccc(Cl)c1 was tested, and the IC50 was 99 nM. CC(C)[C@@H](CN1CCCC1)N(C)C(=O)Cc1ccc(Cl)c(Cl)c1 [listing 2 of 2 here] showed an IC50 of 6.9 nM.
